This note sets out measurements from article PMC2151269, “Broad phase II and pharmacokinetic study of methoxy-morpholino doxorubicin (FCE 23762-MMRDX) in non-small-cell lung cancer, renal cancer and other solid tumour patients” (British Journal of Cancer, 1998).

Series [1] in a line: Plasma pharmacokinetics, cycle 1 (HPLC with fluorescence detection). In kind it is in vivo, human.
A short description of series [2]: Urinary excretion up to 96 h. Conditions: urine collection up to 96 h. The format is in vivo, human.

With “13-dihydro-3'-deamino-3'-[2(S)-methoxy-4-morpholinyl] doxorubicin [13-dihydro metabolite]”, the “AUC (0-24 h) as % of MMRDX AUC 0-24 h” value in series [1] is given as 12%. Further, in series [2], the “Urinary excretion as 13-dihydro metabolite, % of the MMRDX dose” value is reported as 2%.
